Experimental data from ChEMBL document CHEMBL4364305, “Medicinal leech antimicrobial peptides lacking toxicity represent a promising alternative strategy to combat antibiotic-resistant pathogens” (Eur J Med Chem, 2019).

Legend:
Escherichia coli = assay: Antibacterial activity against Escherichia coli MG1655 assessed as reduction in bacterial cell growth incubated for 24 hrs by microtiter dilution method; type: functional; conditions: MG1655, 24 h
Bacillus subtilis = assay: Antibacterial activity against Bacillus subtilis 168 HT assessed as reduction in bacterial cell growth incubated for 24 hrs by microtiter dilution method; type: functional

SMILES: CC[C@H](C)[C@H](NC(=O)CN)C(=O)NCC(=O)N[C@@H](C)C(=O)N[C@H](C(=O)N[C@@H](CC(C)C)C(=O)N[C@@H](CCCCN)C(=O)N[C@H](C(=O)N[C@@H](CC(C)C)C(=O)N[C@H](C(=O)N[C@H](C(=O)NCC(=O)N[C@@H](CC(C)C)C(=O)N1CCC[C@H]1C(=O)N[C@@H](C)C(=O)N[C@@H](CC(C)C)C(=O)N[C@H](C(=O)N[C@@H](CO)C(=O)N[C@@H](Cc1c[nH]c2ccccc12)C(=O)N[C@H](C(=O)N[C@@H](CCCCN)C(=O)N[C@@H](CCCNC(=N)N)C(=O)N[C@@H](CCCCN)C(=O)N[C@@H](CCCNC(=N)N)C(=O)N[C@@H](CCC(N)=O)C(=O)N[C@@H](CCC(N)=O)C(N)=O)[C@@H](C)CC)[C@@H](C)CC)[C@@H](C)O)[C@@H](C)O)C(C)C)C(C)C [MELITTIN]
- MIC (Escherichia coli): 5.7 µM (≈ 16.2 µg/mL)
- MIC (Bacillus subtilis): 1.5 µM (≈ 4.27 µg/mL)

Values after ≈ are worked out from the molar mass of the structure shown.
